What was measured:
[1] = test system: 6H5D1C4; assay: Competition ELISA, cross reactivity with methamphetamine analogs, antibody 6H5D1C4; format: binding, murine; details: Met1 = 100
[2] = test system: 3A10A6A2; assay: Competition ELISA, cross reactivity with methamphetamine analogs, antibody 3A10A6A2; format: binding, murine; details: Met1 = 100

CNC[C@H](O)c1ccc(O)c(O)c1 [Epinephrine]
% inhibition as compared with the antigen Met1 [1]: 1%
% inhibition as compared with the antigen Met1 [2]: 3%

NCCc1ccc(O)c(O)c1 [3-hydroxytyramine]
% inhibition as compared with the antigen Met1 [1]: 1%
% inhibition as compared with the antigen Met1 [2]: 2%
